Values joined by “and” are separate entries in the source; they are usually repeats but may differ in a detail not shown here. Equal entries are not always repeated. Only a part is listed here, and it is no random draw. Inconclusive results are not listed. Active and inactive are the calls of the source. Calls follow the shape of the full dose curve.
% is scaled to controls: 0 for no effect and ±100 for the full control effect.

By UniProt entry, the sequences of proteins in these tests, tags left out.
UniProt P28223, whole entry: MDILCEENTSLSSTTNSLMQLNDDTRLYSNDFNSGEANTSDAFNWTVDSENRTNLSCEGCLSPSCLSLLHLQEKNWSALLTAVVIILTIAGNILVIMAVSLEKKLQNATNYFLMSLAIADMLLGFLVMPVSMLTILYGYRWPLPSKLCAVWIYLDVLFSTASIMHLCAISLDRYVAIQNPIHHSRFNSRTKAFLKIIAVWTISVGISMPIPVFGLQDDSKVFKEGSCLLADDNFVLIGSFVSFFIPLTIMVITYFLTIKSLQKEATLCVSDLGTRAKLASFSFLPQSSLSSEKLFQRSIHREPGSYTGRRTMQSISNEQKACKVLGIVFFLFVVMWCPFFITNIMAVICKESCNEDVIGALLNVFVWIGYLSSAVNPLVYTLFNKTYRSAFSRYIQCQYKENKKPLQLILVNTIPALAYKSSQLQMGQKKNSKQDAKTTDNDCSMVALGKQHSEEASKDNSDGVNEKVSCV

The first assay has as its target 5-hydroxytryptamine receptor 2A (Homo sapiens) (UniProt P28223). Description: 5-hydroxytryptamine receptor 2A (HTR2A) small molecule agonists, cell-based qHTS assay (AID 1963587). Also: nearly all actives have a fitted effect of over 30% in size. The conditions noted are these: HTR2A-CHO cells, calcium flux fluorescence, agonist mode; at 35.6 µM (top of the series). The source says:
National Center for Advancing Translational Sciences [NCATS]
Division of Preclinical Innovation [DPI]
U.S. Environmental Protection Agency [EPA]
National Institutes of Environmental Health Sciences [NIEHS]
National Toxicology Program [NTP]
U.S. Food and Drug Administration [FDA]
The HTR2A receptor is a subtype of the 5-HT2 receptor that belongs to the serotonin receptor family and is a G protein-coupled receptor (GPCR). The HTR2A-CHO cell line stably expressing human 5-hydroxytryptamine receptor 2A (HTR2A) can be used for screening agonists of interactions between 5-HT2 and its ligands. The HTR2A-CHO calcium flux assay is a homogeneous fluorescence-based assay for detecting the intracellular calcium level using FDSS kinetic plate reader system.
HTR2A-CHO cells were dispensed at 2000 cells/3uL/well in 1536-well black-clear bottom plates using a Multidrop Dispenser. After the assay plates were incubated at a 37 C/5% CO2 incubator for 18 h, 3 uL of Dye Loading Buffer was transferred to the assay plate by a Flying Reagent Dispenser. The assay plates were incubated at 37 C for 1h. For agonist mode, 23 nL of compounds dissolved in DMSO, positive controls or DMSO only was transferred to the assay plate by a pin tool. The fluorescence intensity in the plates was measured using FDSS 7000EX kinetic plate reader for 2 min at 1 sec intervals.
(In qHTS, concentration-response curves come from the screen itself.)
Turning to `OCCSCCO`, the activation is inactive: -0.583%.

The same assay, now with this note: HTR2A-CHO cells, calcium flux fluorescence, agonist mode; at 76.8 µM (top of the series).
On to `OCCSCCO`, for which the activation is inactive: -0.555%.

Staying with this assay, now noted: HTR2A-CHO cells, calcium flux fluorescence, agonist mode; at 76.8 µM (top of the series) unless noted.
Regarding `CC(C)N(CCO)C(C)C`, the activation was inactive: 3.23%. In the case of `CCN(CC)CCCl`, the activation is inactive: -1.35%.

On to `Cc1cccc([N+](=O)[O-])c1[N+](=O)[O-]`, for which the activation is inactive: 2.32% [at 35.6 µM].

`O=[N+]([O-])c1cccc([N+](=O)[O-])c1`: the activation is inactive: -1.97%. For the compound `O=[N+]([O-])[O-].[NH4+]`, the activation was inactive: -1% and inactive: -4.87%. Consider `C/C1=C2N=C(/C=C3N=C(/C(C)=C4\[N-][C@@](C)([C@@H]5N=C1[C@](C)(CCC(=O)NC[C@@H](C)OP(=O)([O-])O[C@H]1[C@@H](O)[C@@H](n6cnc7cc(C)c(C)cc76)O[C@@H]1CO)[C@H]5CC(N)=O)[C@@](C)(CC(N)=O)[C@@H]4CCC(N)=O)[C@@](C)(CC(N)=O)[C@@H]\3CCC(N)=O)C(C)(C)[C@@H]/2CCC(N)=O.[C-]#N.[Co+3]`, for which the activation was inactive: -15.1% [at 35.6 µM].

Take `CCOP(=O)(CC)Oc1ccc([N+](=O)[O-])cc1` (configuration not stated): the activation was inactive: -0.408% [at 35.6 µM]. On to `CP(=O)(O)OCCC[Si](O)(O)O`, for which the activation is inactive: -0.891%. Same read-out and setting: in the case of `CCOP(=O)(CC)OCC` it was inactive: 0.292%. In the case of `Cc1ccc([N+](=O)[O-])cc1[N+](=O)[O-]`, the activation was inactive: -1.84% and inactive: -1.2%. `[NH4+].[O-][Cl+3]([O-])([O-])[O-]`: the activation is inactive: -0.704% and inactive: -2.98%. On to `CN(C)CCCl`, for which the activation was inactive: 2.9%. Turning to `CC(C)OP(C)(=O)OC(C)C`, the activation was inactive: 8.98% and inactive: 0.686%. The same measure, in the same setting: in the case of `N#CBr` it was inactive: 2.29%. `Nc1cc([N+](=O)[O-])cc([N+](=O)[O-])c1O`: the activation is inactive: 1.05%. As to `O=[N+]([O-])OCC(CO[N+](=O)[O-])(CO[N+](=O)[O-])CO[N+](=O)[O-]`, the activation is inactive: -0.0219%. Same read-out and setting: as for `N=C(N)N[N+](=O)[O-]`, the figure is inactive: -1.34%; as for `COP(C)(=O)OC`, inactive: -0.813% and inactive: 4.68%.

Turning to `COc1ccc([N+](=O)[O-])cc1[N+](=O)[O-]`, the activation was inactive: -2.97%. On the same count and under the same terms, in the case of `Cc1c([N+](=O)[O-])cccc1[N+](=O)[O-]` it was inactive: -2.02% and inactive: -0.488%.

Values taken from PubChem BioAssay (Tox21).
